Assay results as given in US8017791B2 (dated 2011).

Molecular target: NET (Rattus norvegicus, UniProt Q9WTR4)
Experiment: Inhibition of [3H]nisoxetine binding to NET
Settings: read-out: Radioligand Kd

pKd: 8.66
Substance: [^3H]nisoxetine [reference compound]

pKd: −log10 of the molar value.
